Measurements published in PubChem BioAssay AID2690 (NMMLSC, 2010).
This is a selection; strong and weak results do not stand in their true shares. Activity calls are given as the source filed them.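 The calls were made as follows: active = superoxide response under a set limit, about three screen SD below normal (cut at about 65% in these data); inactive = the rest.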

Experiment: reduction of superoxide in aged yeast, primary screen, HTS (AID 2690);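 also: yeast aged for seven days with compound at 30 °C before DHE staining; 100% = average MFI of all compound-treated wells on the plate with controls excluded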
Settings: S. cerevisiae aged cells, superoxide DHE fluorescence; at 10 µM; hits give low values

SMILES | superoxide response (% of plate mean)
C[C@H]1OP(=O)(Oc2ccccc2)[C@H](O)[C@H](O)[C@H]1N=[N+]=[N-] (some centres not stated) | inactive: 94.1%
O=P(Nc1nc2ccccc2s1)(c1ccccc1)c1ccccc1 | inactive: 85.7%
CC(=O)NC(SC(=S)N(C)C)C(Cl)(Cl)Cl (configuration not stated) | inactive: 89.9%
O=[N+]([O-])c1ncn(CCn2cnc([N+](=O)[O-])n2)n1 | inactive: 125%
O=[N+]([O-])c1ccc(O)c(/C=N/Nc2ccc([N+](=O)[O-])cc2[N+](=O)[O-])c1 | inactive: 95.8%
O=[As](O)(c1ccccc1)c1ccc(O)cc1 | inactive: 104%
Nc1ccc([As](=O)(O)c2ccc([N+](=O)[O-])cc2)cc1 | inactive: 122%
C(Cc1nn[nH]n1)Cc1nn[nH]n1 | inactive: 101%
O=C(OC1CN2CCC1CC2)c1cccc(Cl)c1 (configuration not stated) | inactive: 97.7%
Cc1ccc(C(=O)OC2CN3CCC2CC3)cc1 (configuration not stated) | inactive: 107%
CC1CCC(C(C)C)C(OP(=O)(Nc2ccccn2)c2ccccc2)C1 (configuration not stated) | inactive: 81.3%
Cc1nn(-c2ccccc2)c2c1P(=O)(N1CCOCC1)N(C)C(c1ccccc1)=N2 (configuration not stated) | inactive: 95.3%
O=C(/C=C/c1ccccc1)OC1CN2CCC1CC2 (configuration not stated) | inactive: 101%
CN(C)C1(CNC(=O)c2ccc(S(C)(=O)=O)cc2)CCCCC1 | inactive: 107%
O=P1(Nc2ncccn2)COc2ccccc2OC1 | inactive: 109%
NS(=O)(=O)c1cccc(NC(=O)COC(=O)C(O)(c2ccccc2)c2ccccc2)c1 | inactive: 115%
O=P1(Nc2ccc(Br)cn2)COc2ccccc2OC1 | inactive: 87.2%
Cc1ccc(OCC(=O)OC2CN3CCC2CC3)cc1 (configuration not stated) | inactive: 96.6%
O=[As](O)(c1cccs1)c1cccs1 | inactive: 67.4%
Nc1cccc([As](=O)(O)c2ccccc2)c1 | inactive: 101%
CN(CCCl)Cc1cc(Cl)c(NC2=NCCN2)c(Cl)c1 | inactive: 100%

SMILES | superoxide response (% of plate mean)
CCOP(=O)(Nc1ccc(C)cn1)OCC | inactive: 75.8%
CCOP(=O)(NC(=NC(C)c1ccccc1)NC(C)c1ccccc1)OCC (configuration not stated) | inactive: 109%
CCC1=CC2Cc3nc4ccc(Cl)cc4c(N)c3C(C1)C2 (configuration not stated) | inactive: 100%
O=P1(Nc2ccccn2)COc2ccccc2OC1 | inactive: 106%
CC(C)(C)C(=O)NC(Sc1ncccn1)C(Cl)(Cl)Cl (configuration not stated) | inactive: 109%
Clc1n[nH]nc1-c1nn[nH][15n]1 | inactive: 103%
COc1ccccc1CNC(=O)COC(=O)C(O)(c1ccccc1)c1ccccc1 | inactive: 89.2%
CC1(CBr)Cn2c(nc3ccccc3c2=O)S1 (configuration not stated) | inactive: 103%
O=[As](O)(c1ccccc1Br)c1ccccc1Br | inactive: 112%
CN(C(=O)Cc1ccc(Cl)c(Cl)c1)[C@@H]1CCCC[C@H]1N1CCCC1 | inactive: 96.7%
CC(C)/C=N\N=C(\N)N[N+](=O)[O-] | inactive: 90.2%
CS(=O)(=O)c1ccc(Cl)c(NC(=O)COC(=O)C(O)(c2ccccc2)c2ccccc2)c1 | inactive: 99.5%
COc1cc(C(=O)NCC2(N3CCOCC3)CCCCC2)cc(Cl)c1OC(C)C | inactive: 99.1%
O=[As](O)(O)c1cccnc1 | inactive: 88.6%
O=C(OC1CN2CCC1CC2)c1ccc(Cl)cc1 (configuration not stated) | inactive: 107%
O=[As](O)(c1cccc(O)c1)c1cccc(O)c1 | inactive: 112%
Cc1cccc(OCC(=O)OC2CN3CCC2CC3)c1 (configuration not stated) | inactive: 92.8%
CCCOP(=S)(Nc1nc(N)cc(=O)[nH]1)OCCC | inactive: 103%
Cc1ccc(NCCc2c([N+](=O)[O-])cc([N+](=O)[O-])cc2[N+](=O)[O-])cc1 | inactive: 105%
Nc1cccc2c([As](=O)(O)O)cccc12 | inactive: 102%
CCOP(=O)(Nc1cccc2ccccc12)OCC | inactive: 76.2%
